Results published in US20080200533A1, “Drug or Pharmaceutical Compounds and a Preparation Thereof” (priority 2005, published 2008).

Assays:
[1] = Solubility in water and in lactic acid
Solubility in oils = conditions: arachis oil, sunflower oil, soybean oil etc.

Row | Substance | solubility in lactic acid ([1]; lactic acid) | solubility in water ([1]; water) | solubility in oils (in words) (Solubility in oils)
1 | Atorvastatin (S)-2,6-diaminohexanoic acid betaine | 1 gm in 5 ml of lactic acid | 100 mg in 100 ml of water | –
2 | atorvastatin (S)-2,6-diaminohexanoic acid (Z)-9-Octadecenoic complex | – | – | freely soluble in oils
